Experimental data taken from US20090181896A1, “Use of Natriuretic Peptide Receptor Antagonists to Treat Ocular, Otic and Nasal Edemetous Conditions” (ALCON RESEARCH, LTD., priority 2006, published 2009).

What was measured:
[1] = biological target: T1, Type-B natriuretic peptide receptor in human corneal epithelial cells (Homo sapiens, UniProt P20594); assay: Natriuretic peptide-stimulated cGMP production (guanylyl cyclase activity, EIA) in human corneal epithelial cells; type: cell-based; details: read-out: Potency EC50, cGMP production via type-B receptor, mean ± SEM
T1 construct: primary human corneal epithelial cells (P-CEPI) were isolated from human donor eyes; endogenous in cells; host or cells: primary human corneal epithelial cells (P-CEPI) and SV40-immortalized human corneal epithelial cells (CEPI-17-CL4)
T1 sequence (P20594 23-1047): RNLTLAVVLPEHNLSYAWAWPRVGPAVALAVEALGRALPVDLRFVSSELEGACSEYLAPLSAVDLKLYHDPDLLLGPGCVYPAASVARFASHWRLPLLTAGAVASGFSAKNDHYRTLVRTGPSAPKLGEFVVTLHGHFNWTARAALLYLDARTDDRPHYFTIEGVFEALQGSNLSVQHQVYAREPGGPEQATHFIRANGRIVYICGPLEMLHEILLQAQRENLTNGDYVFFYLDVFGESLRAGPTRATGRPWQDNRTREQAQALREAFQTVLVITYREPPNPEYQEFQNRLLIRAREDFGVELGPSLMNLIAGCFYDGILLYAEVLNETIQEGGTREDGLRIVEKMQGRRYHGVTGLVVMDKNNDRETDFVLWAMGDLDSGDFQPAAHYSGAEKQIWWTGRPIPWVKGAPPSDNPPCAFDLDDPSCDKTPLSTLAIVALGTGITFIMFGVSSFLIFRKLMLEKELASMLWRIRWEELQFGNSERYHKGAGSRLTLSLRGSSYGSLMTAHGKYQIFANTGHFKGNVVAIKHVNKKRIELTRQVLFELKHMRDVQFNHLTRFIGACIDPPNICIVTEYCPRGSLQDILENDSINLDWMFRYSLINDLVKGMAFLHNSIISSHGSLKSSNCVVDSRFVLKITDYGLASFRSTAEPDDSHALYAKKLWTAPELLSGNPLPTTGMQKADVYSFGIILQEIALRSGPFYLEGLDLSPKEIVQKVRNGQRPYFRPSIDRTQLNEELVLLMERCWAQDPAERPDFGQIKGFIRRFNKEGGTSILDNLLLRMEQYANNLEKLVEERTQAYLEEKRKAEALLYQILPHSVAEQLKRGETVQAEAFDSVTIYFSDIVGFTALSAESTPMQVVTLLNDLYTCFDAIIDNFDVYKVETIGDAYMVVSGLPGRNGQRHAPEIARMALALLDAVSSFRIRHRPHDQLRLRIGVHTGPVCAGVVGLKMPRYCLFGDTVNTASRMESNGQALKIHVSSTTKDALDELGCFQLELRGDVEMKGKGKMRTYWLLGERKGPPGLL

[2] = biological target: T2, Type-A natriuretic peptide receptor in human conjunctival epithelial cells (Chang cells) (Homo sapiens, UniProt P16066); assay: Natriuretic peptide-stimulated cGMP production (guanylyl cyclase activity, EIA) in human conjunctival epithelial cells (Chang cells); type: cell-based; details: read-out: Potency EC50, cGMP production via type-A receptor, mean ± SEM
T2 construct: the most relevant cells are Chang cells (Clone 1-5C-4 Wong-Kilbourne Derivative); These cells were obtained from ATCC; host or cells: Chang cells (Clone 1-5C-4 Wong-Kilbourne Derivative), human conjunctival epithelial cells
T2 sequence (P16066 33-1061): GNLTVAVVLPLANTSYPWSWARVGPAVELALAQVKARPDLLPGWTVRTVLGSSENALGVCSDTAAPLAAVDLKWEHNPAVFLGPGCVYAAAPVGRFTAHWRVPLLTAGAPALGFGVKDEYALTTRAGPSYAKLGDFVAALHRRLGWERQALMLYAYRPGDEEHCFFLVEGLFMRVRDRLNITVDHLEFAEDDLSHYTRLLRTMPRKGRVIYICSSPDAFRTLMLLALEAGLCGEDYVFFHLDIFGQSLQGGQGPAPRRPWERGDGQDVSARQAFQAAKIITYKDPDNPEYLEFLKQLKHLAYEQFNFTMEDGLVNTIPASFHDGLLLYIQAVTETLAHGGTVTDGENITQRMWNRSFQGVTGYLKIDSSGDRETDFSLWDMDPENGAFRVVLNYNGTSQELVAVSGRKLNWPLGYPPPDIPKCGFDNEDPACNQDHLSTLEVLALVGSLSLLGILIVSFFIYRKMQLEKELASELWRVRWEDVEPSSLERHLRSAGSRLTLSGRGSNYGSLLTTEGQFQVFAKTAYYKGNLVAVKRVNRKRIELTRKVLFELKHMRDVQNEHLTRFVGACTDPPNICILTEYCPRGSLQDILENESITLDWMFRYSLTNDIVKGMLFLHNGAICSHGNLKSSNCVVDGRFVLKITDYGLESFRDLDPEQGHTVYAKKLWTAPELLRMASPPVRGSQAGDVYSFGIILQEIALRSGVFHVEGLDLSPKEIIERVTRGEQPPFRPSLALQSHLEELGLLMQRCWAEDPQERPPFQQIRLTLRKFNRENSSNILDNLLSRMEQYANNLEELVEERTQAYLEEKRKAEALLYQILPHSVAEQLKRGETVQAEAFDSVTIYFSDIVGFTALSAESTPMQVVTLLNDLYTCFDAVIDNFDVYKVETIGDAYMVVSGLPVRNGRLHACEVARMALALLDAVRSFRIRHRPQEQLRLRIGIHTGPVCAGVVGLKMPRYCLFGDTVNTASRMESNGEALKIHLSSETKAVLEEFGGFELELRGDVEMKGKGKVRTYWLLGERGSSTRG
Experimental: These cells were obtained from ATCC (Manassas, Va.) and cultured in medium 199, containing 10% fetal bovine serum and […] Gentamicin. (obtained from Gibco/Invitrogen; Carlsbad, Calif.).
Cells were seeded in 48-wells culture plates. On reaching confluence, the cells were rinsed twice with 0.5 ml Dulbeco's modified Eagle's medium (DMEM)/F-12. […] Natriuretic peptides (American Peptide Co. Inc., Sunnyvale, Calif.; Peninsula Labs. San Carlos, Calif.) were then added at the end of this period and the reaction was allowed to proceed for another 15 minutes at 23° C. After aspiration of the reaction medium, ice cold 0.1 M acetic acid ([…], pH 3.5) was added for the termination of cGMP synthesis and cell lysis. Finally, ice-cold 0.1 M sodium acetate ([…], pH 11.5-12.0) was added to neutralize the samples before analysis of cGMP by an enzyme immunoassay (EIA) kit. cGMP production in the cells was measured using the EIA kit purchased from Amersham Pharmacia Biotech (Piscataway, N.J.). […] Data were analyzed using a non-linear, iterative curve-fitting computer program (IDBS, Surrey, UK) and Origin software package (Microcal Software, Inc., Northampton, Mass.) (Sharif et al. 1996; Crider et al. 2003).

| Substance | EC50 [1] [nM] | EC50 [2] [nM] |
| --- | --- | --- |
| brain natriuretic peptide [BNP] | 54 ± 4 | 3.2 ± 2.2 |
| C-type natriuretic peptide [CNP] | 7 ± 2.6 | > 10000 |
